The source of these data is PubChem BioAssay AID1671188 (National Center for Advancing Translational Sciences (NCATS), 2021).

Sequences of proteins named here, by UniProt entry; tags and fusion partners are left off.
UniProt Q8TD30, whole entry: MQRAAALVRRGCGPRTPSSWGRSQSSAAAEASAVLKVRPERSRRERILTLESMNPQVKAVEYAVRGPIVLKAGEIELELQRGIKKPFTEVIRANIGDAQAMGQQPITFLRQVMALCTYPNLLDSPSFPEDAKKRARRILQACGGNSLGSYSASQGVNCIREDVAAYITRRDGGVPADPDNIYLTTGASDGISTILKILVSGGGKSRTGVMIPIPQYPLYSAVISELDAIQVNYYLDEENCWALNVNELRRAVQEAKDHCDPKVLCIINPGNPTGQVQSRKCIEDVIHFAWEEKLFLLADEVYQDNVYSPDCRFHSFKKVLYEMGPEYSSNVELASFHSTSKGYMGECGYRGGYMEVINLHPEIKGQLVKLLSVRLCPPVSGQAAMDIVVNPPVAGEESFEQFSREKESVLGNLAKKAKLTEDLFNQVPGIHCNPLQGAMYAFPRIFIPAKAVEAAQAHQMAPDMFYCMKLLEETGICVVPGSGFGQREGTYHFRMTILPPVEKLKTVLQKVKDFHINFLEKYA

Only a part is listed here, and it is no random draw. Inconclusive results are not listed. Calls of active or inactive are those of the source. Calls follow the shape of the dose curve; as a rule, active = well fitted inhibition curve with a large enough effect; inconclusive = small, poorly fitted or top-dose-only effect; inactive = flat fitted curve, though single readings scatter.
% is scaled to controls: 0 for no effect and ±100 for the full control effect; potency is read from the fitted curve at half-maximal effect.

The target of this assay is Alanine aminotransferase 2 (Homo sapiens) (UniProt Q8TD30). The experiment in a line: Primary qHTS assay for inhibitors of Glutamate pyruvate transaminase 2 (GPT2). Also: nearly all actives have a fitted effect of over 60% in size. Particulars: Recombinant GPT2, coupled pyruvate oxidase/HRP Amplex Red fluorescence; series mostly up to 57.7 µM; activity change, negative = inhibition: at the top concentration. The method, then:
Assay Provider: Zhenghe John Wang Ph.D.
Case Western Reserve University, Cleveland OH
Glutamate pyruvate transaminase 2 (GPT2) catalyzes the reversible transamination of glutamate and pyruvate to provide a-ketoglutarate and alanine. We have optimized an assay for GPT2 enzymatic activity that couples pyruvate formation to detection of fluorescence using an established pyruvate oxidase/horseradish peroxidase / Amplex Red system.
Screening conditions were 250uM a-KG, 2mM L-alanine, and 10ng/uL GPT2 in […] of solution; 10uL of Amplex reaction mix (outlined below) were added so that final concentrations of Amplex reagents in 50uL were 0.2mM ThPP, 0.2U/mL PO and HRP, and 50uM Amplex.
NOTE: The volume of GPT2 in the system depends on the activity of it. The activity is different every batch. You need to test the activity before the assay. For full plate assay with automation, plate 20uL of GPT2 buffer to pin into, then add 10uL of GPT2 dilution followed immediately by 10uL of substrate dilution. 2 Columns of the plate were devoted to GPT2 buffer ([…] PH7.5, 0.0001% Tween) + 50uM AOA (known GPT2 inhibitor) to serve as a positive control. Complete the assay as normal. Amplex-red buffer: […] PH7.5, 1 mM EDTA, 1 mM MgCl2.
1. Combine a-KG and L-alanine at desired concentrations and incubate for at least 10 minutes at 37C. Stocks of L-alanine and a-KG are diluted in distilled water. However, the stocks were diluted in GPT2 buffer for the assay.
2. Prepare GPT2 dilution at the desired concentration in GPT2 buffer.
3. Plate 40uL of GPT2 dilution with 40uL of substrate dilution and let incubate for 30 minutes at room temperature.
4. Add 20uL of Amplex reaction mix prepared as follows: 1.5uL 200U/mL Horseradish Peroxidase, 200mM Thiamine Pyrophosphate, 200U/mL Pyruvate Oxidase; 7.5uL 10mM Amplex Red; 288uL Amplex Buffer.
5. Incubate for 30 minutes at room temperature in the dark, then image using AM_Amplex_Fluorescence on plate reader nearest the window.
In general terms: In qHTS, concentration-response curves come from the screen itself.
Turning to `CCOC(=O)C(=O)CBr`, the Potency is active: 4.85 µM.

Take `CCOC(=O)N1CCC(=O)CC1`: the “activity change, negative = inhibition” value was inactive: -6.96%.

For `CC(=O)N1CCc2ccc(N(C(=O)/C=C/c3cccc(C#N)c3)C3CCN(CCC4CCCC4)CC3)cc21`, the “activity change, negative = inhibition” value was inactive: -22.6%.

Take `CCC(=O)N(c1ccccc1)C1CCNCC1`: the result was inactive.
